Experimental data as given in patent US9493432B2, “Cyclopentylbenzamide derivatives and their use for the treatment of psychotic and cognitive disorders” (Takeda Pharmaceutical Company Limited, priority 2013, dated 2016).

Chains of the proteins cited; added tags and fusions are not shown.
UniProt O43613, whole entry: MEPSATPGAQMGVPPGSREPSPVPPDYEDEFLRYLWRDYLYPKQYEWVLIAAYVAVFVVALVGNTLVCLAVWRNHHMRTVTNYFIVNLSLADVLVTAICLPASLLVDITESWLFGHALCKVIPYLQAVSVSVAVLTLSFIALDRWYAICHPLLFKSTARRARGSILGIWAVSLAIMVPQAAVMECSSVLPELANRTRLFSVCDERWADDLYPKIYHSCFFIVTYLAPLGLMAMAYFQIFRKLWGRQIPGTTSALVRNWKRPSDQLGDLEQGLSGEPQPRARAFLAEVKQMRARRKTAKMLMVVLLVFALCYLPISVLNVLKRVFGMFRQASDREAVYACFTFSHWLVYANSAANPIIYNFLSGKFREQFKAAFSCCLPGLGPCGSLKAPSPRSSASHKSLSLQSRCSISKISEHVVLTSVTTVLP

Molecular target: human orexin receptor 1 (Homo sapiens (Human), UniProt O43613)
Assay: Orexin antagonist activity, intracellular calcium FLIPR assay (orexin receptor 1)
Assay type: cell-based
Conditions: RBL-2H3 cells stably expressing human orexin receptor 1; Ca2+ dye FLIPR; compound 15 minutes before orexin-A at approximately 80% maximal response; read-out: Human Orexin1R IC50
Procedure: Orexin antagonist activity was determined by measuring changes in intracellular calcium levels using a Ca^2+ sensitive fluorescent dye. The changes in fluorescent signal were monitored by Fluorescent Imaging Plate Reader (FLIPR™) technology available from Molecular Devices, LLC, U.S.A. Orexin mediated increases in intracellular Ca^2+ concentration were readily detected upon activation with orexin-A. Twenty-four hours prior to the assay, RBL-2H3 cells stably expressing either human orexin receptor 1 or human orexin receptor 2 were seeded in cell culture medium in black, clear-bottom 384-well plates (commercially available from Corning Inc., U.S.A.) and grown overnight at 37° C., 5% CO2. On the day of the assay, cell culture media was removed and cells were loaded with Calcium 5 Dye (commercially sold by Molecular Devices, LLC, U.S.A.) for 1 hour at 37° C., 5% CO2. Test compounds (at 10 point half log concentration response curves from 10 μM) were added to cells for 15 minutes prior to the addition of orexin-A to all wells, to achieve a final concentration that produces approximately an 80% maximal response. The IC50 values were determined from ten point concentration response curves. Curves were generated using the average of two wells for each data point.

5-Methyl-N-((1S,2S)-2-(quinoxalin-2-ylamino)cyclopentyl)-2-(2H-1,2,3-triazol-2-yl) benzamide [Example 21]
IC50: 18 nM
